These are literature values, as cited in US20170360029A1, “Chemical Agent For Controlling Soil Nematode Which Comprises Macrolide-Type Compound” (Maruwa Biochemical Co., Ltd., priority 2012, published 2017).

The conditions of the data set: cited from earlier work.

On to emamectin benzoate, for which the solubility to water was 24 µg/mL.
